From PMC3313490 (Current Cancer Drug Targets, 2011)

Target: T1, porcine liver PMPMEase (Sus scrofa, UniProt Q29550)
T1 sequence (Q29550 19-566): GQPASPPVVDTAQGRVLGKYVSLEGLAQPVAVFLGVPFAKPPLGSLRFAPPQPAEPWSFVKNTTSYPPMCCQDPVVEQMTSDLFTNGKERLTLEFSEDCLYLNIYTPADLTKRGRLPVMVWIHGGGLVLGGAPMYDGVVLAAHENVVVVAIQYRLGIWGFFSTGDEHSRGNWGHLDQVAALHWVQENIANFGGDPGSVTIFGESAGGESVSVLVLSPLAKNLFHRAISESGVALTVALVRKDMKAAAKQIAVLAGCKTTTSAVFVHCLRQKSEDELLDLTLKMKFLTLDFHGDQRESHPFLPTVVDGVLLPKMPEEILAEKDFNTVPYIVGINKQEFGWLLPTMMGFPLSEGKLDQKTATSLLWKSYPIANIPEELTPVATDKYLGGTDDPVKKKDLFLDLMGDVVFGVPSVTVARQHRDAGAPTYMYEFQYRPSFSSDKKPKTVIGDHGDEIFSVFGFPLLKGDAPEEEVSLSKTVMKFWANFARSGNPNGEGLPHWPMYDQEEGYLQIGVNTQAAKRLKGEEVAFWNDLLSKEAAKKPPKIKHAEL
Conditions: PMPMEase 82.5 μg, pre-incubation 0-30 min, 100-fold dilution, RD-PNB substrate

SMILES: O=S(=O)(F)Cc1ccccc1 [PMSF, phenylmethylsulfonyl fluoride, reference compound]
- Kobs/[I]: 6 M⁻¹ s⁻¹
